# Where “and” joins values, the source holds several entries; their conditions need not be identical. Equal values may be shown once. In all, about 390,000 compounds went through this assay and about 4,000 (1%) were called active. These results got no clear call from the source, so the numbers are uncertain. The call rests on the fitted dose curve; in most records, active means well fitted inhibition curve with a large enough effect; inconclusive means small, poorly fitted or top-dose-only effect, or another doubt; inactive means no such curve, though single readings can be large or run the other way.
# Amino acid sequences for entries named in this document (tags omitted). A change or cut given only in a name is not applied to a line headed by its entry.
# UniProt Q9UNA4: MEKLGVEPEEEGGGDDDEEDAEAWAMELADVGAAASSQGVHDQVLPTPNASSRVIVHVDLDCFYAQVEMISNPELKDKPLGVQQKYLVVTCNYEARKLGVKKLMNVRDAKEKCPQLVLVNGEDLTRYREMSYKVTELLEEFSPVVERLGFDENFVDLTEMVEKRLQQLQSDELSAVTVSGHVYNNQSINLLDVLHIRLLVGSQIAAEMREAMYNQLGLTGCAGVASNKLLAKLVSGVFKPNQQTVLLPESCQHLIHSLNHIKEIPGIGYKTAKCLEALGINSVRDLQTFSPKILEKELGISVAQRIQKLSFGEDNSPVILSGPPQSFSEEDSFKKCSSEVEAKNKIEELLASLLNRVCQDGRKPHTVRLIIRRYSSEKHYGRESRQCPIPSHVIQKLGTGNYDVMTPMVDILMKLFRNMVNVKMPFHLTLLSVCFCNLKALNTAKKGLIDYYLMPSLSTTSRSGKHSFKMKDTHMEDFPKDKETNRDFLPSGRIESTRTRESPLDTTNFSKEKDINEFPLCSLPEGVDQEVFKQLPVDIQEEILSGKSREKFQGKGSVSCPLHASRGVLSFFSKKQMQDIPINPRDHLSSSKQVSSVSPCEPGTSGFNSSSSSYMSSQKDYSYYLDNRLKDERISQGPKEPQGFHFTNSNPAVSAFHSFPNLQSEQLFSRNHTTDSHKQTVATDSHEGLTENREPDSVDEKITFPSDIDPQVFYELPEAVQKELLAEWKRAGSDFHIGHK
# Target: DNA polymerase iota (Homo sapiens) (UniProt Q9UNA4)
# Assay: qHTS for Inhibitors of Polymerase Iota
# Details: Pol iota fluorescent replication assay, 10 min
# Potency means the concentration at half of the fitted maximal effect.
row,Structure (SMILES),Potency
1,O=[N+]([O-])c1cc([N+](=O)[O-])c(-c2ccn[nH]2)s1,inconclusive: 12.6 µM
2,O=[As](O)(c1ccc(O)cc1)c1ccccc1O,inconclusive: 89.1 µM
3,C[As](=O)(O)c1cccc(C(=O)O)c1,inconclusive: 56.2 µM
4,Cc1ccc2nc3c(c(C)c2c1)CC(C(Cl)Cl)S3 (configuration not stated),inconclusive: 39.8 µM
5,ClCCN(CCCl)c1ccc(CC2C=CC=C2)cc1,inconclusive: 56.2 µM
6,Nc1cccc2c([As](=O)(O)O)cccc12,inconclusive: 35.5 µM
7,Cc1ccc(NCCc2c([N+](=O)[O-])cc([N+](=O)[O-])cc2[N+](=O)[O-])cc1,inconclusive: 44.7 µM
8,CN(C)C(=O)c1cc([N+](=O)[O-])cc2c1-c1c(cc([N+](=O)[O-])cc1[N+](=O)[O-])C2=O,inconclusive: 12.6 µM
9,O=[N+]([O-])c1ccc2c(c1)nnn2O,inconclusive: 50.1 µM
10,CS(=O)(=O)c1cc([N+](=O)[O-])c2no[n+]([O-])c2c1,inconclusive: 20 µM
11,O=P(Nc1nccs1)(c1ccccc1)c1nc2ccccc2s1 (configuration not stated),inconclusive: 50.1 µM
12,O=C(O)COc1ccc([As](=O)(O)O)cc1[N+](=O)[O-],inconclusive: 79.4 µM
13,COc1ccc(N)c([N+](=O)[O-])c1[N+](=O)[O-],inconclusive: 17.8 µM
14,CCOc1ccc(C2=NCC(CBr)S2)cc1 (configuration not stated),inconclusive: 35.5 µM
15,Nc1cc(N)c2nonc2c1[N+](=O)[O-],inconclusive: 39.8 µM
16,Oc1ccccc1CNc1ccccn1,inconclusive: 63.1 µM
17,CN(C(=O)Cc1ccc(Cl)c(Cl)c1)[C@H]1CCCC[C@H]1N1CCCC1,inconclusive: 89.1 µM
18,Nc1cccc2ccc([As](=O)(O)O)cc12,inconclusive: 15.8 µM
19,O=C(O)c1ccccc1[As](=O)(O)O,inconclusive: 12.6 µM
20,CN(C(=O)Cc1ccc(Cl)c(Cl)c1)[C@H]1CCCC[C@@H]1N1CCCC1,inconclusive: 8.91 µM and inconclusive: 56.2 nM
21,O=P(/N=c1/nc(-c2ccccc2)n(-c2ccccc2)s1)(Nc1ccccc1)Nc1ccccc1,inconclusive: 5.62 µM
22,O=[N+]([O-])c1cc([N+](=O)[O-])c(CCNc2ccccc2)c([N+](=O)[O-])c1,inconclusive: 3.16 µM

# From PubChem BioAssay AID588590 (National Center for Advancing Translational Sciences (NCATS), 2011)
